One compound from patent US9242993B2, “Morpholino substituted bicyclic pyrimidine urea or carbamate derivatives as mTOR inhibitors” (CELLZOME LIMITED, priority 2011, dated 2016) can be followed below.

Protein sequences, listed by entry. Tags and fused reporters are not part of them. Lines headed by an entry give the natural chain unless they say otherwise; changes in a name come on top.
UniProt P48736: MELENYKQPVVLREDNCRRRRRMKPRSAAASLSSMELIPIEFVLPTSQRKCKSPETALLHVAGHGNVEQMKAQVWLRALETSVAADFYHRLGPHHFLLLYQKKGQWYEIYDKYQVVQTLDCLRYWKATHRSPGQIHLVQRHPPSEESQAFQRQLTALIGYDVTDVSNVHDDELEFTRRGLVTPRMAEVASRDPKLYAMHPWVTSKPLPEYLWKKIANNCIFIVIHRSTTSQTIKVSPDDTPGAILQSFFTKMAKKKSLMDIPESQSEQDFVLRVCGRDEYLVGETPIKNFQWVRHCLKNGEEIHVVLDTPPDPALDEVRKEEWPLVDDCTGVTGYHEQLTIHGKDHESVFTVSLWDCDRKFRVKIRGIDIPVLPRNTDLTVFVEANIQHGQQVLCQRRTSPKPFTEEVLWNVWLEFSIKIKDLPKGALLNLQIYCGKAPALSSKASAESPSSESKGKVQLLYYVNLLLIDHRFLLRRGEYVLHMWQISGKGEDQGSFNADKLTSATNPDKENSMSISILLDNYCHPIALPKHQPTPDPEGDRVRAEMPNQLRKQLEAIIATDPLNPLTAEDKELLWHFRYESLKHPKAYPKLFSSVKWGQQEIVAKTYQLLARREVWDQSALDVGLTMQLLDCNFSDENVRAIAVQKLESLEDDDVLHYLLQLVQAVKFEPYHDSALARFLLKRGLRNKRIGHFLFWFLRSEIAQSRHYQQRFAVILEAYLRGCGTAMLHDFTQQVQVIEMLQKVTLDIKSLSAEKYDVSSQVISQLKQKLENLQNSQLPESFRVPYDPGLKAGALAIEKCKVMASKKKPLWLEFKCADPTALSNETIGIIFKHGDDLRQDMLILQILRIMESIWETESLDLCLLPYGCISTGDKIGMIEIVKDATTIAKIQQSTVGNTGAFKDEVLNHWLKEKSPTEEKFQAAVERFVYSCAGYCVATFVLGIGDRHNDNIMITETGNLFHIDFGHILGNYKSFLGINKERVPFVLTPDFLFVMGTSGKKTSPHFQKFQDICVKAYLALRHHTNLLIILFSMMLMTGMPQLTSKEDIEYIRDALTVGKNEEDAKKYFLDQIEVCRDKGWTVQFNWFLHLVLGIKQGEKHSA
UniProt O00329: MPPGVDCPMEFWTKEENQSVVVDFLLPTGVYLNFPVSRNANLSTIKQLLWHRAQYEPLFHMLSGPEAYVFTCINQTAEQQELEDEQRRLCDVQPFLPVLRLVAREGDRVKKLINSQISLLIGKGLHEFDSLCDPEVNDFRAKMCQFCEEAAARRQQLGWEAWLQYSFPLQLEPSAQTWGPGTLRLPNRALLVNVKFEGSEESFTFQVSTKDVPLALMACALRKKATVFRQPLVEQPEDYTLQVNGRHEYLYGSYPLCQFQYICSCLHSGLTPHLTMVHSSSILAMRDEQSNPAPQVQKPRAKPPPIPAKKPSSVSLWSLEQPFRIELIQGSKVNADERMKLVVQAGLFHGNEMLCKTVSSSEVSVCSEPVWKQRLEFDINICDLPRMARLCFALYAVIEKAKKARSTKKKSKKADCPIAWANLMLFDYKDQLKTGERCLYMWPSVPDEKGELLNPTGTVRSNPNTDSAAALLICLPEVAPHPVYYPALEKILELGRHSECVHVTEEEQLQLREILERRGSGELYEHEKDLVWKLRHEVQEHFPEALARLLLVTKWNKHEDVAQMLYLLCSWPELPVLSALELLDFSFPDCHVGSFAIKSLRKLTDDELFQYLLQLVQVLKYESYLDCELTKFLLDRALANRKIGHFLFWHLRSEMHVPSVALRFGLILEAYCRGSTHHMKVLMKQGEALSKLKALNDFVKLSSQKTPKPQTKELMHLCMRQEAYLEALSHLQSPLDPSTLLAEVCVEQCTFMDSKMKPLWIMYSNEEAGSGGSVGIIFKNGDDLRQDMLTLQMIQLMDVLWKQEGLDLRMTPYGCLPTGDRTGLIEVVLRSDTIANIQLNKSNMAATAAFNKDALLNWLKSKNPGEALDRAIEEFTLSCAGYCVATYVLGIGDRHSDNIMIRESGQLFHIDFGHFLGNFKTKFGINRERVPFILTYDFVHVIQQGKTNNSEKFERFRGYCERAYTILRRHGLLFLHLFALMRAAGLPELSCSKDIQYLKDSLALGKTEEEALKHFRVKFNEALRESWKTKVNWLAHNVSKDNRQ

One assay deals with PI3K gamma (PI3 Kg) (Homo sapiens, UniProt P48736). The assay can be described thus: kinobeads assay, PI3K gamma. Conditions: Jurkat cell lysate, read-out: PI3Kg inhibition value (IC50), activity level. In kind it is binding.
A further assay concerns the target PI3K delta (PI3 Kd) (Homo sapiens, UniProt O00329). The assay can be described thus: kinobeads assay, PI3K delta. Conditions: Jurkat cell lysate, read-out: PI3Kd inhibition value (IC50), activity level. In kind it is binding.

The IC50 is the concentration that inhibits the measured activity by half. For the compound `CCNC(=O)Nc1ccc(-c2nc3c(c(N4CCOC[C@@H]4CC)n2)[C@H](C)S(=O)(=O)C3)cc1` [Example 53, 1-ethyl-3-(4-((S)-4-((S)-3-ethylmorpholino)-5-methyl-6,6-dioxido-5,7-dihydrothieno[3,4-d]pyrimidin-2-yl)phenyl)urea], the IC50 at PI3K gamma (PI3 Kg) and on PI3K delta (PI3 Kd) was more than 10 µM in each case.
